# scFv variants of Ab-14 (light chain) against a SARS-CoV-2 spike peptide

All variants were tested on one target, the spike HR2 peptide PDVDLGDISGINAS (SARS-CoV-2).

Ab-14 is the parent antibody, in scFv form: VH, then three GGGGS repeats, then VL. The heavy chain is unchanged in all variants.
VH: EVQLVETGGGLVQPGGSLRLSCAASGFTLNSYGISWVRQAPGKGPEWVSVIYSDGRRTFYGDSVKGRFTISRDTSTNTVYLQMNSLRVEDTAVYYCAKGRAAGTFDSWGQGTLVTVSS
VL: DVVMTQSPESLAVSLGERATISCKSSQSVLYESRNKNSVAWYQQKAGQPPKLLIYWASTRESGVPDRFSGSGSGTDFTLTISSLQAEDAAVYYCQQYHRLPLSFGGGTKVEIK

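This is the validation round: designs drawn from the data on random variants, tested in the same kind of assay. Group labels follow the data file (Ctrl: baseline library sampled from a position-specific scoring matrix, with some repeated check sequences; En: ensemble of fine-tuned language models; GP: Gaussian process model; HC: hill climbing; Gen: genetic algorithm; Gibbs: Gibbs sampling; a sequence that several methods proposed may carry one label only). AlphaSeq pools MATa yeast showing the antibodies with MATalpha yeast showing the peptide. Pairs that bind mate more often; barcode pairs of the diploids are counted by sequencing. Scores were corrected for input abundance and mapped to Kd with protein pairs of known affinity run in the same pool. Each pool was mated in six replicate cultures.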

Each variant is given by its three light chain CDRs, as the data file delimits them; those of the parent are KSSQSVLYESRNKNSVA, WASTRES, QQYHRLPLS. The read-out is the apparent dissociation constant on a log10 scale (nM): the lower, the stronger. Replicates are averaged; those with no signal do not enter the mean. A pair that was not seen in any replicate is written "no signal"; this usually means weak binding, but a binder can also be missed. The list is sorted by this average, lowest first, undetected variants last. Of ten entries with the parent sequence, four were seen in most replicates (averages 0.34 to 2.37), three in one and three in none, so single entries are noisy. Values of this round are not directly comparable with the first-round values of the same sequences. The authors averaged sequences with at least three values out of six and counted those with two or fewer as poor binders. Empty control strains, which show no peptide, gave a signal in 4% of pairings with all light chain designs; the median was 2.64 and 95% of these signals were weaker than 1.59. No background was subtracted. The control count says in how many pairings with the empty strains this scFv gave a signal.

CDR-L1,CDR-L2,CDR-L3,group,mean log10 Kd (nM),replicates with signal,empty controls
KLESRQYQFGANHQNIA,DATDSMN,QQYMHLPFT,En_Gibbs,-0.30,6 of 6,0 of 18
HLSQSVLMESRNKNSVA,NASTRES,QQYHRLPLS,GP_Gen,-0.30,6 of 6,2 of 18
KLSQSVLYESRNKNSVA,NANQRES,QQYHRLPLS,GP_Gen,-0.29,6 of 6,2 of 18
KFSQSVLYESRNKNSVA,QASTRAS,QQYHRLPLS,Ctrl,-0.18,6 of 6,0 of 18
KLSQSVLYESRNKNSVA,GASQRLS,QQYHRLPLS,GP_Gen,-0.16,6 of 6,0 of 18
KLPQSWLYESRNKNSVA,QASQRES,QQYHRLPLS,GP_Gen,-0.13,6 of 6,2 of 18
KLQQSVEYESRNKNSVA,HASTRES,QQYHRLPLS,GP_Gen,-0.12,6 of 6,2 of 18
KLPMKELQMSENTNNVA,DSAQKMK,QQYSRLPLM,En_Gibbs,-0.08,6 of 6,2 of 18
KVSPSMWYESRNKNSVA,DASQRES,QQYHRLPLQ,GP_Gibbs,-0.07,6 of 6,1 of 18
KQSGEKLYESRNKNSVA,DASTRES,QQYHRLPLS,GP_HC,-0.06,6 of 6,2 of 18
HMMMYREMQNNIQNNIA,DAMTRVT,QQYQHLPLS,En_Gibbs,-0.06,6 of 6,0 of 18
KLSQMVDYESRNMNNVA,NASTRES,QDYHRLPLS,GP_Gibbs,-0.04,6 of 6,3 of 18
KLPQSDLYESRNKNSVA,AASTRES,QQYHRLPLS,GP_Gen,0.00,6 of 6,0 of 18
HISMMVGTKGYNKGSVA,NAETRED,QQYHRLPLS,En_HC,0.00,6 of 6,0 of 18
KSLQSQLYESRDKNSVA,HASTRED,QQYHRLPLS,GP_HC,0.01,6 of 6,1 of 18
KLSQSVQYESRNKNSVA,SASTRES,QQYHRLPLS,GP_Gen,0.03,6 of 6,0 of 18
KVQPSYLYESRNKNSVA,QASTRES,QQYHRLPLS,GP_HC,0.04,6 of 6,3 of 18
SVFMELAEEKASTRSIA,DASMRLA,QQYVRLPLG,En_Gibbs,0.06,6 of 6,0 of 18
KLMQSVLYESRNKNSVA,NASQRMS,QQYHRLPLS,GP_Gen,0.06,6 of 6,1 of 18
KSSQSQLYLSRNGNSVA,EASTRES,QQYHRLELS,Ctrl,0.07,6 of 6,0 of 18
KLRQQTLYESRNKNSVA,MASTREE,QQYHRLPLS,GP_HC,0.08,6 of 6,1 of 18
KSSQSELYESRNKNSVA,GASFRES,QQYHRLPLS,GP_HC,0.10,6 of 6,0 of 18
KLSISVEYQDRLSNSVA,DASQREW,QQYHRLPLS,GP_Gibbs,0.10,6 of 6,2 of 18
KWSQSHLYESRNWNAVA,EASQRPS,QQYHRLPLS,GP_Gibbs,0.14,6 of 6,1 of 18
MLTMFANENAGKSSNIA,DTNQLTT,QQYQRLPFM,En_Gibbs,0.21,6 of 6,1 of 18
KYQQSEPTESRNKNSVA,NASTRES,QQYHQLPLS,GP_Gibbs,0.22,6 of 6,0 of 18
KSSWSELYESNNKNSVA,HASTRED,QQYHRLPLS,GP_HC,0.23,6 of 6,4 of 18
KQSQSDLYESVNKNSVA,DASTRES,QQYHRLPLS,GP_HC,0.35,6 of 6,0 of 18
HLAQSVDLESVHKNSIA,DLMTREH,QQYHRLPLS,En_HC,0.37,6 of 6,1 of 18
KGQQQVQYESRNWNSVA,NASYRES,QQYHRLPLS,GP_Gibbs,0.40,6 of 6,1 of 18
KLEQWVEYESRNKNSVA,HASTRLS,QQYHRLPLS,GP_Gibbs,0.40,6 of 6,0 of 18
KIGMTLNQLMHQKNNVA,DLVQREN,QQYYRLPLS,En_Gen,0.40,6 of 6,1 of 18
KLEPSEWYESRMCNSVA,NASVRES,QQYHRLPLS,GP_Gibbs,0.44,6 of 6,4 of 18
HISQSFMTESVHRNSVA,HQSTREQ,QQYDRLPLS,En_HC,0.46,6 of 6,3 of 18
KLSQSDLYEDRNANNVA,NASQRES,QVYHRLPLS,GP_Gibbs,0.46,6 of 6,0 of 18
TLSHSTDLEIVHKNSIA,DLMTRES,QQYDRLPLS,En_HC,0.61,6 of 6,1 of 18
TISQLYNMGQFAINSVA,QASERCN,QQYDRLPLT,En_Gen,0.61,6 of 6,1 of 18
KSSISYLYESRNQNSVA,AASTRES,QQYHRLPLS,GP_HC,0.64,6 of 6,0 of 18
KWQQSDDLESRNHNSVA,HASTRCS,QQYHRLPLS,GP_Gibbs,0.66,6 of 6,1 of 18
KSSQSVLQEDRNSNSVA,NASTREL,QQYHRLPLS,GP_Gibbs,0.66,6 of 6,5 of 18
TISTSANYESTNKNSVA,ELSTRGS,QQYERLPLS,En_HC,0.70,6 of 6,3 of 18
KLSQVTKSESRNKNSIA,EMVTREV,QQYDRLPLS,En_HC,0.73,6 of 6,2 of 18
KITATMRFEQKESNNIA,EVTQRSK,QQYYRLPLS,En_Gen,0.75,6 of 6,0 of 18
KLVNSTLYESRQKNSVA,SASTRES,QQYHRLPLS,GP_HC,0.83,6 of 6,1 of 18
KLRQSTHIESFEKNNVA,EMTTRES,QSYDRLPLS,En_HC,0.89,2 of 6,0 of 18
KSLQEWLYESRNKNSVA,HASTREQ,QQYHRLPLS,GP_HC,0.96,6 of 6,2 of 18
TIGQVTMQLSRNKNSVA,DASTSED,QQYDRLPLS,En_HC,0.99,6 of 6,0 of 18
KSSQSVLNESRNKNSVA,EASTRES,QQYHRLPLW,Ctrl,1.02,6 of 6,0 of 18
KLSMSVDYESRMCNSVA,EASTREE,QQYHRLPLS,GP_Gibbs,1.03,6 of 6,0 of 18
KSSQSVLYESNNKNSVA,NASTREM,QQYHRLPLS,Ctrl,1.05,5 of 6,0 of 18
TIGQMFHGESRNRNSVA,QASTRES,QSYDRLPLS,En_HC,1.13,6 of 6,4 of 18
HFSQHTMEFMSQNKAVA,EVTTTMT,QQYARLPFI,En_Gibbs,1.16,6 of 6,0 of 18
MISQLMNMGTFAINSVA,QAEIRNN,QQYDRLPLI,En_Gen,1.29,2 of 6,0 of 18
KVFMELAEDKASTRNIA,DASVHCA,QQYVRLPLG,En_Gibbs,1.38,6 of 6,2 of 18
HLLYAFNTGSLRDNNVA,EGETVLD,QQYFRLPIT,En_Gibbs,1.48,3 of 6,0 of 18
KSSQSGLMESRNKNSVA,WASTRVS,QQYHRLELG,Ctrl,1.52,5 of 6,1 of 18
KLGESTRFESSNKASIA,DNSTRES,QQYHRLPLS,En_HC,1.55,6 of 6,1 of 18
NLYQAMNFLGRVMNSIA,DASTIPD,QQYHRLPLS,En_HC,1.66,1 of 6,0 of 18
HQSDSVLQESRNKNSVA,DASTRES,QQYHRLPLS,GP_HC,1.70,6 of 6,0 of 18
IVSQLMLWGYHAKNSIA,EAQTRLN,QQYERLPLF,En_Gen,1.70,2 of 6,1 of 18
MIAAGLRGVGRNKNSVA,NAQTRED,QHYHRLPLS,En_HC,1.71,5 of 6,0 of 18
DVHALMNHSSDLMQNIA,DESCRDA,QQYERLPLS,En_Gibbs,1.77,6 of 6,2 of 18
SMQFYTENFAEIGQNIA,DVSATTA,QQYHRLPLA,En_Gibbs,1.77,5 of 6,0 of 18
DVHALMNHSSDLMQSIA,DDSCRDA,QQYERLPLS,En_Gibbs,1.86,6 of 6,0 of 18
KIMQSLNYEQFSVSNVA,GQETRER,QSYHRLPLS,En_HC,1.94,6 of 6,1 of 18
KSSQSVLDESRPKNSVA,WASTRES,NQYHRLPLS,Ctrl,1.98,2 of 6,0 of 18
KLVGDMQEDKNPSENIA,EESSVEQ,QQYSRLPLE,En_Gibbs,2.07,1 of 6,0 of 18
KISQSVLYESLNKNSVA,DASTREV,AQHHRLPLS,Ctrl,2.27,3 of 6,1 of 18
KSSQSVLYESRNKNSVA,WASQRES,QQYHRLPLS,Ctrl,3.07,2 of 6,1 of 18
KSSQSVLYESRNINSVA,MASTREY,QQYHRLELS,Ctrl,no signal,0 of 6,0 of 18
KSSQSILYESRNKNSVA,WASTHES,QQYHYLPLS,Ctrl,no signal,0 of 6,0 of 18
HMRSGSVEQWNIENAVA,EMSEVYR,QQYVSLPLS,En_Gibbs,no signal,0 of 6,0 of 18

The closing 11 entries, repeated:

CDR-L1,CDR-L2,CDR-L3,group,mean log10 Kd (nM),replicates with signal,empty controls
DVHALMNHSSDLMQNIA,DESCRDA,QQYERLPLS,En_Gibbs,1.77,6 of 6,2 of 18
SMQFYTENFAEIGQNIA,DVSATTA,QQYHRLPLA,En_Gibbs,1.77,5 of 6,0 of 18
DVHALMNHSSDLMQSIA,DDSCRDA,QQYERLPLS,En_Gibbs,1.86,6 of 6,0 of 18
KIMQSLNYEQFSVSNVA,GQETRER,QSYHRLPLS,En_HC,1.94,6 of 6,1 of 18
KSSQSVLDESRPKNSVA,WASTRES,NQYHRLPLS,Ctrl,1.98,2 of 6,0 of 18
KLVGDMQEDKNPSENIA,EESSVEQ,QQYSRLPLE,En_Gibbs,2.07,1 of 6,0 of 18
KISQSVLYESLNKNSVA,DASTREV,AQHHRLPLS,Ctrl,2.27,3 of 6,1 of 18
KSSQSVLYESRNKNSVA,WASQRES,QQYHRLPLS,Ctrl,3.07,2 of 6,1 of 18
KSSQSVLYESRNINSVA,MASTREY,QQYHRLELS,Ctrl,no signal,0 of 6,0 of 18
KSSQSILYESRNKNSVA,WASTHES,QQYHYLPLS,Ctrl,no signal,0 of 6,0 of 18
HMRSGSVEQWNIENAVA,EMSEVYR,QQYVSLPLS,En_Gibbs,no signal,0 of 6,0 of 18

Values reported by Li et al. 2023, doi:10.1038/s41467-023-39022-2 (FLAb copy).